Experimental data reported in ChEMBL document CHEMBL1772975, “Novel potent and selective σ ligands: evaluation of their agonist and antagonist properties” (J Med Chem, 2011).

Test system: Rattus norvegicus
Assay: Antinociceptive activity in Sprague-Dawley rat assessed as mean AUC of thermal-stimulus induced tail flick latency for 60 mins at 5 mg/kg, sc
Details: route subcutaneous, strain Sprague-Dawley

## CN(C(=O)Cc1ccc(Cl)c(Cl)c1)[C@H]1CCCC[C@@H]1N1CCCC1
  Activity: 75.6%
